Experimental data from patent publication US20060003399.

Assays:
[1] = target: Full length human N-WASP, TAP-tagged at the C-terminus (Myc-N-WASP-TAP)
[2] = target: Full length human WASP, TAP-tagged at the C-terminus (Myc-WASP-TAP)

B1: GST-tev-Cdc42 (protein)
chain: MSPILGYWKIKGLVQPTRLLLEYLEEKYEEHLYERDEGDKWRNKKFELGLEFPNLPYYIDGDVKLTQSMAIIRYIADKHNMLGGCPKERAEISMLEGAVLDIRYGVSRIAYSKDFETLKVDFLSKLPEMLKMFEDRLCHKTYLNGDHVTHPDFMLYDALDVVLYMDPMCLDAFPKLVCFKKRIEAIPQIDKYLKSSKYIAWPLQGWQATFGGGDHPPKSDLVPRPWSNQTSLYKKAGFENLYFQGQTIKCVVVGDVAVGKTCLLISYTTNKFPSEYVPTVFDNYAVTVMIGGEPYTLGLFDTAGQEDYDRLRPLSYPQTDVFLVCFSVVSPSSFENVKEKWVPEITHHCPKTPFLLVGTQIDLRDDPSTIEKLAKNKQKPITPETAEKLARDLKAVKYVECSALTQRGLKNVFDEAILAALEPPETQPKRKCCIF
Barbed ends [1]: 1.3 nM | Barbed ends % of max. [1]: 9% | acceleration of actin polymerization [1]: the upstream regulators or activators Cdc42 or Nck1 accelerated actin polymerization 13-fold | Barbed ends [2]: 3.8 nM | Barbed ends % of max. [2]: 87% | acceleration of actin polymerization [2]: the upstream regulators or activators Cdc42 or Nck1 accelerated actin polymerization 13-fold
